Drawing on paper PMC12350791, this text covers cross-linked residues for one substance.

Amino acid sequences for entries named in this document (tags omitted). A change or cut given only in a name is not applied to a line headed by its entry.
UniProt Q96JB5: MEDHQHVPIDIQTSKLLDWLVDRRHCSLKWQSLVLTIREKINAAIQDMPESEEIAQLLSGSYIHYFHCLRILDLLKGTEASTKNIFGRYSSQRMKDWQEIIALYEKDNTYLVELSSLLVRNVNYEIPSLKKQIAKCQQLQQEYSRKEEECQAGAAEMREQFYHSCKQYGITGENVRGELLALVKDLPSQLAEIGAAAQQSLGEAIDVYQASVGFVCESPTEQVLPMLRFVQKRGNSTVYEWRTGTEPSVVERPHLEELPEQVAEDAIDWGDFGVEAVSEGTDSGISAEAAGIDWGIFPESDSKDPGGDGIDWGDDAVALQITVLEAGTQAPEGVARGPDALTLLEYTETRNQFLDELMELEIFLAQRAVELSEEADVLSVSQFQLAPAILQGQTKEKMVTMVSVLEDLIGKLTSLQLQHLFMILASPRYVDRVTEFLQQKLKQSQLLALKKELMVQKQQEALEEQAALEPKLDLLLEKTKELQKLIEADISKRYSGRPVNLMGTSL

The other results are listed elsewhere or left out.

The experiment concerns the target CDK5RAP3 (UniProt Q96JB5). Put plainly: cross-linking mass spectrometry. As to conditions: DSBSO, in cells or nuclear extract, not told apart.

For UFL1, O94874, the cross-linked residues result is listed as “K130 - K440”.
